# Reference: PMC4828713, “New potential binding determinant for hERG channel inhibitors” (Scientific Reports, 2016)
# Columns and labels:
# [1] = target: wild type hERG (WT) channels (Homo sapiens, UniProt Q12809); assay: Two-microelectrode voltage clamp, tail current inhibition of WT hERG expressed in Xenopus laevis oocytes; settings: from concentration-response relationship
# Excerpt: (§1) For hERG measurements, the oocytes were clamped at a holding potential of −100 mV and depolarized to +20 mV allowing activation and inactivation. […] Channel block was estimated from tail current inhibition.
# Y652A-hERG = Y652A-hERG (Homo sapiens, UniProt Q12809, Y652A); assay: Two-microelectrode voltage clamp, tail current inhibition of mutant Y652A hERG in Xenopus laevis oocytes; settings: from concentration-response relationship
# Excerpt: as §1
smiles,measurement,setting,value
"COc1cc(N)c(Cl)cc1C(=O)NC1CCN(CCCOc2ccc(F)cc2)CC1OC (centres unmarked) [Cisapride, cisapride]",WT nH (hill coefficient),[1],0.9 ± 0.03
same,Y652A-hERG nH (hill coefficient),Y652A-hERG,1.03 ± 0.1
